# According to PubChem BioAssay AID651725 (National Center for Advancing Translational Sciences (NCATS), 2012):
# Amino acid sequences for entries named in this document (tags omitted).
# UniProt Q15475, whole entry: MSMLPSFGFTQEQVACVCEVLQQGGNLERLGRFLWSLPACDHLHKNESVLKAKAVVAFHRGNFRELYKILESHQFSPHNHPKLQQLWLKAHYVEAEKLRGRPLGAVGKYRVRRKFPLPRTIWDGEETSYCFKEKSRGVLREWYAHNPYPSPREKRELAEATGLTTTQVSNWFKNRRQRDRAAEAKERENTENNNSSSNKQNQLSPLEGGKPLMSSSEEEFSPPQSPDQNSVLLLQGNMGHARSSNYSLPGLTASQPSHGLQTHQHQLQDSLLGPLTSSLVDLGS
# Only a part is listed here, and it is no random draw. Some salts and complexes are drawn in separate pieces, as the source files them; their charges need not balance. Active and inactive are the calls of the source. Cut-off read from the data, not from the text of the source: active = activity change below about -65%; inconclusive = mostly about -30% to -63%; inactive = weaker than that.
# Target: Homeobox protein SIX1 (Homo sapiens) + Protein phosphatase EYA2 (Homo sapiens) (UniProt Q15475+O00167)
# Test: qHTS Assay for Inhibitors of the Six1/Eya2 Interaction
# Conditions: AlphaScreen GST-Six1/His-Eya2 binding, biochemical; active compounds read low
# Description: Its expression is low or undetectable in normal adult breast tissue but the gene is over-expressed in 50% of primary breast tumors and 90% of metastatic lesions. […] Similar to Six1, Eya2 is also not expressed in most normal adult tissues, but is reexpressed in cancers. The Six1-Eya interaction is essential for proliferation during embryonic development, and both Six1 and Eya2 have been independently implicated in the same types of cancer. Because Six1 and Eya2 are embryonic genes with little expression in adult tissues, inhibitors of their expression/activity are likely to have limited side effects. Our goal is to identify inhibitors of the Six1/Eya interaction for potential cancer therapy. To this end, we have developed a homogenous AlphaScreen assay targeting the Six1/Eya interaction. We performed a large scale HTS of the Molecular Libraries Small Molecule Repository (MLSMR) to identify inhibitors of the Six1/Eya interaction as potential anti-cancer therapeutics. Compounds identified can also be used as chemical probes to better understand the biological functions of Six1 and Eya. NIH Chemical Genomics Center [NCGC] NIH Molecular Libraries Probe Centers Network [MLPCN] MLPCN Grant: DA033147 Assay Submitter (PI): Rui Zhao, University of Colorado Denver
# The first step of the 5 uL AlphaScreen assay is to dispense assay buffer (50 mM Tris, pH 8.0, 300 mM NaCl, 0.05% BSA, 0.02% Tween 20, 1 mM TCEP) into a Greiner 1536 white solid bottom microtiter plate (789175-F). Five microliters is added to Column 1, 4 uL is added to Column 2 and 3 uL is added to Columns 3 through 48. A 5X protein solution (250 nM GST-Six1 protein + 500 nM His-tagged Eya2 protein) is mixed and 1 uL is dispensed to Columns 3-48. Using a 1536 pintool, 23 nL of compound is transferred to the assay plate. A solution of 5X AlphaScreen beads is mixed (50 ug/mL Glutathione linked donor beads + Nickel chelated acceptor beads) and 1 uL is dispensed to Columns 2-48. The assay plate is incubated for one hour, with a lid, at 37 deg C in the dark. The plate is read using a Perkin Elmer Envision using an AlphaScreen protocol.
# % is set by controls: 0 for no effect and ±100 for the full control effect.
row,Structure (SMILES),activity change
1,O=C(NCC1(N2CCCCC2)CCCCC1)c1ccc(OC(F)F)cc1,inactive: -6.83%
2,CSc1ccc(C(=O)NCC2(N3CCOCC3)CCCCC2)cc1,inactive: 7.95%
3,O=C(NCC1(N2CCCCC2)CCCCC1)c1cccc([N+](=O)[O-])c1,inactive: 3.9%
4,CCN1CCC(Nc2ccc(Cl)cc2)CC1,inactive: -1.83%
5,O=c1[nH]c2ccccc2n1C1CCN(C(c2ccccc2OC(F)(F)F)c2nnnn2C2CCCC2)CC1 (centres undefined),inactive: -9.48%
6,N#CC1(Nc2ccccc2)CCN(CCc2ccccc2)CC1,inactive: -0.29%
7,CN1CCC(Nc2cccc(F)c2)CC1,inactive: 2.28%
8,O=C(NCC1(N2CCCCC2)CCCCC1)c1cncc(Br)c1,inactive: 5.26%
9,COc1ccc2c(c1O)-c1c(O)c(OC)cc3c1[C@H](C2)[N+](C)(C)CC3.O=[N+]([O-])c1cc([N+](=O)[O-])c([O-])c([N+](=O)[O-])c1[O-],inactive: -7.88%
10,O=C(OC1CN2CCC1CC2)c1ccc([N+](=O)[O-])cc1 (centres undefined),inactive: -7.36%
11,Cc1ccc(C(=O)NCC2(N(C)C)CCCCC2)o1,inactive: 0.253%
12,CCCOc1ccc(C(=O)NCC2(N(C)C)CCCCC2)cc1OC,inactive: -0.539%
13,COc1ccc(C(c2nnnn2C2CCCC2)N2CCC(n3c(=O)[nH]c4ccccc43)CC2)cc1 (centres undefined),inactive: -11.8%
14,COc1ccc(CN(CCCl)CCCl)cc1Cl,inactive: 2.8%
15,CN(C)c1cccc(C(=O)NCC2(N3CCCCC3)CCCCC2)c1,inactive: -1.53%
16,O=[N+]([O-])c1cc([N+](=O)[O-])c(OC2CCCCC2O)c([N+](=O)[O-])c1 (centres undefined),inactive: 17.7%
17,CCCCn1nnnc1C(c1ccccc1OC(F)(F)F)N1CCC(n2c(=O)[nH]c3ccccc32)CC1 (centres undefined),inactive: -6.65%
18,CCCCn1nnnc1C(c1ccnc2ccccc12)N1CCC(n2c(=O)[nH]c3ccccc32)CC1 (centres undefined),inactive: -1.46%
19,COc1cc(OC)c(C(=O)NCC2(N(C)C)CCCCC2)cc1OC,inactive: 4.13%
20,CCC(c1nnnn1C(C)(C)C)N1CCC(n2c(=O)[nH]c3ccccc32)CC1 (centres undefined),inactive: 1.44%
21,O=C(NCC1(N2CCOCC2)CCCCC1)c1cc(F)c(F)cc1Cl,inactive: 3.25%
22,O=C(NCC1(N2CCOCC2)CCCCC1)c1cc2ccccc2o1,inactive: -6.08%
23,O=C(NCC1(N2CCCCC2)CCCCC1)c1ccc(Cl)nc1,inactive: 1.07%
24,O=c1[nH]c2ccccc2n1C1CCN(C(c2ccccc2OC(F)(F)F)c2nnnn2C2CCCCC2)CC1 (centres undefined),inactive: 0.131%
